Test results published in patent EP2064211B1, “IMIDAZO[1,2-A]PYRIDINE HYDROXYMATE COMPOUNDS THAT ARE INHIBITORS OF HISTONE DEACETYLASE” (MEI Pharma, Inc., priority 2006, dated 2008).

The chains behind the UniProt entries cited, without tags or fusion partners.
UniProt Q13547, whole entry: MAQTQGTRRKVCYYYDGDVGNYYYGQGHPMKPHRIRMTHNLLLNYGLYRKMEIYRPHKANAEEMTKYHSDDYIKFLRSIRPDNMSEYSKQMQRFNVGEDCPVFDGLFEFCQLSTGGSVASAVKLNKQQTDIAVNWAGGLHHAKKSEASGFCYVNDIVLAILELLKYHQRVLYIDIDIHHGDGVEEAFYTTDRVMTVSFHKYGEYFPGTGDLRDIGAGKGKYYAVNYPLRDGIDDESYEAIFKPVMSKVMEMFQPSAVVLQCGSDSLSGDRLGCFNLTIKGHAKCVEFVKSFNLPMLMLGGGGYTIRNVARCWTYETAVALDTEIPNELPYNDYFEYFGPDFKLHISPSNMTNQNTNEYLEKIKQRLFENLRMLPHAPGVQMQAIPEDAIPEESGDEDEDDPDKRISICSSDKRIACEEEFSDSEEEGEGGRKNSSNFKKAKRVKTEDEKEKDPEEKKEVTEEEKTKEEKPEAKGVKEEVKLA

Target: T1, HDAC1 enzyme (Homo sapiens, UniProt Q13547)
T1 construct: Amplification of human HDAC1 coding region from this cDNA library was cloned separately into the baculovirus expression pDEST20 vector; made in house; host or cells: SF9 insect cells (baculovirus, pDEST20 vector)
Assay: In vitro HDAC assay for determination of IC50 values (BIOMOL fluorescent-based HDAC activity assay)
Type: biochemical
Conditions: recombinant GST-HDAC1, 500 uM Flur de lys substrate, room temperature 2 h; read-out: IC50 (HDAC 1)
Experimental: Human cDNA library was prepared using cultured SW620 cells. Amplification of human HDAC1 coding region from this cDNA library was cloned separately into the baculovirus expression pDEST20 vector (GATEWAY Cloning Technology, Invitrogen Pte Ltd). The pDEST20-HDAC1 construct was confirmed by DNA sequencing. Recombinant baculovirus was prepared using the Bac-To-Bac method following the manufacturer's instruction (Invitrogen Pte Ltd). Baculovirus titer was determined by plaque assay to be about 10^8 PFU/ml.
Expression of GST-HDAC1 was done by infecting SF9 cells (Invitrogen Pte Ltd) with pDEST20-HDAC1 baculovirus at MOI=1 for 48 h. Soluble cell lysate was incubated with pre-equilibrated Glutathione Sepharose 4B beads (Amersham) at 4°C for 2 h. The beads were washed with PBS buffer for 3 times. The GST-HDAC1 protein was eluted by elution buffer containing 50 mM Tris, pH8.0, 150mM NaCl, 1% Triton X-100 and 10mM or 20mM reduced Glutathione. The purified GST-HDAC1 protein was dialyzed with HDAC storage buffer containing 10mM Tris, pH7.5, 100mM NaCl and 3mM MgCl2. […]
The assay has been carried out in 96 well format and the BIOMOL fluorescent-based HDAC activity assay has been applied. […] The fluorophore is excited with 360 nm light and the emitted light (460 nm) is detected on a fluorometric plate reader (Tecan Ultra Microplate detection system, Tecan Group Ltd.). […]

“3-(2-Butyl-3-{(ethyl-(2-methyl-pentyl)-amino]-methyl}-imidazo[1,2-a]pyridin-7-yl)-N-hydroxy-acrylamide [Compound 41]” gave an IC50 of 60 nM.
